Source: patent EP0615756B1 (priority 1993, dated 1994)
Counter-ions that a name gives are not always drawn.

Test system: human
Experiment: Duration of analgesic effect after intramuscular injection in humans
Type: in vivo

Oc1ccc2c3c1O[C@H]1[C@@H](O)CC[C@@]4(O)[C@@H](C2)N(CC2CCC2)CC[C@]314 [nalbuphine hydrochloride, reference compound]
50 % analgesic effect (human, 0.8 mmole/kg): 2.5 h
10% analgesic effect (humans): 5.0 h
20% analgesic effect (humans): 4.4 h
